Data: patent US9040660B2, “Long-acting gastrin derivatives” (priority 2010, dated 2015)

Molecular target: T1, CCK2 receptor (gastrin receptor) (Homo sapiens, UniProt P32239)
T1 construct: expressed in transfected cells; host or cells: NIH 3T3/CCK2R cells (mouse fibroblast line overexpressing CCK2R, kept under G418 selection)
T1 sequence (P32239 1-447): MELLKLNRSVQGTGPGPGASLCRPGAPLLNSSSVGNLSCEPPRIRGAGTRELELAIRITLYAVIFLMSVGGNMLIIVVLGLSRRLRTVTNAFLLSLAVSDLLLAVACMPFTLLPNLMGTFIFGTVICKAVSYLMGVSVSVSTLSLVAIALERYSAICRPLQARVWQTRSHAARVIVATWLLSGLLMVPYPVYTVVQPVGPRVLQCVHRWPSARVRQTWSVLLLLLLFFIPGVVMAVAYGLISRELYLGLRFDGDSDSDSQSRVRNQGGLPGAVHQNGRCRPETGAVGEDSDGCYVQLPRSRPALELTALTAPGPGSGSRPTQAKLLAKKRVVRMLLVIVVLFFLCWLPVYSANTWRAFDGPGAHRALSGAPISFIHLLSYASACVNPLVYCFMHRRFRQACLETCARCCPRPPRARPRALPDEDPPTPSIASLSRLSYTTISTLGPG
Format: cell-based
Conditions: [Leu15] Gastrin-17 = 100, NIH 3T3/CCK2R cells, calcium mobilization
Experimental: Assay (I): In Vitro Receptor Potency In vitro receptor potency was measured using a CCK2 receptor mediated calcium mobilization assay. The CCK2 receptor (gastrin receptor) signals via the heterotrimeric G-protein, Gq, to activate phospholipase C(PLC). This leads to generation of inositol-1,4,5-trisphosphate (IP3) that releases calcium from intracellular stores. The primary rise in cytosolic calcium concentration is followed by activation of calcium dependent calcium channels in the plasma membrane allowing extracellular calcium to enter the cell. The rise in calcium concentration is transient, but it can be measured in situ by loading the cells with a calcium dependent fluorescent probe and monitored by the use of 96- or 384-well fluorescence plate readers. […] Beside the baseline fluorescence measurement, a second fluorescence measurement was performed after 30 seconds with both measurements using the […] […] Emin was calculated. The concentration-response relationship was calculated using a four-parameter logistic model using non linear regression analysis (Prism 5.02, GraphPad Software). In vitro receptor potency of gastrin compounds was measured using Assay (I).

## [Leu15] Gastrin-17 [reference compound]
Table 2: N-terminal acylation/truncation series
  Relative Receptor Potency: 100
Table 3: acylation position (Lys scan) series
  Relative Receptor Potency: 100

Read-outs that look alike come from different tables or passages of the source.
